HCMV NEC inh – disrupts HCMV UL50-UL53 complex binding; HTRF UL50-UL53 interaction, normalized percent inhibition; inhibition, % (no concentration beside the values); actives 0.15% (n = 190,000); AID 1918969; in the data active means inhibition above about 27%, passing the limit was not always enough
GIV Gai3 FP – inhibitors of GIV peptide binding to Galpha-i3, primary screen, biochemical, fluorescence polarization, FITC-GIV GBA peptide, rat Galphai3 | 90 min; stronger effect = lower value; scaled: aluminum fluoride 0%, vehicle 100% | AID 1224905, 2016 | 210,000 compounds, 0.42% hits | percent of control (FP), % (concentration not given with the values) | Guanine nucleotide-binding protein G(i) subunit alpha-3 (Rattus norvegicus), P08753;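 active = replicate mean at 85% of control or lower, very high polarization wells dropped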;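 note: wells of about 15 µL received 100 nL stock; the first replicate is given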
GIV Gai FP conf – GIV-Galpha-i3 inhibition, FP confirmation; shares compounds with GIV Gai3 FP; FITC-GIV peptide binding to Galphai3, fluorescence polarization; stronger effect = lower value; fluorescence polarization, mP at 100 µM; actives 38% (n = 580); AID 1259350;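 active means inhibition score of 15 or more, meaning 100 minus mean polarization as percent of control over three replicates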
GIV-Gai AS conf – confirmation of inhibitors of GIV binding to human Galpha-i3 | AlphaScreen Galphai3-GIV binding, purified proteins, 90 min; stronger effect = lower value | actives 39% (n = 580) | AlphaScreen counts at 100 µM | AID 1259351 | shares compounds with GIV Gai3 FP;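 active means inhibition score at or above a set limit, where the score is 100 minus the three-replicate mean percent of control signal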
* hit, by the source's call. Many of the other results were omitted from the sample, so hits are more common in it than they were.

Chains of the proteins cited; added tags and fusions are not shown.
Guanine nucleotide-binding protein G(i) subunit alpha-3 (Rattus norvegicus), P08753, UniProt P08753, whole entry, looked up: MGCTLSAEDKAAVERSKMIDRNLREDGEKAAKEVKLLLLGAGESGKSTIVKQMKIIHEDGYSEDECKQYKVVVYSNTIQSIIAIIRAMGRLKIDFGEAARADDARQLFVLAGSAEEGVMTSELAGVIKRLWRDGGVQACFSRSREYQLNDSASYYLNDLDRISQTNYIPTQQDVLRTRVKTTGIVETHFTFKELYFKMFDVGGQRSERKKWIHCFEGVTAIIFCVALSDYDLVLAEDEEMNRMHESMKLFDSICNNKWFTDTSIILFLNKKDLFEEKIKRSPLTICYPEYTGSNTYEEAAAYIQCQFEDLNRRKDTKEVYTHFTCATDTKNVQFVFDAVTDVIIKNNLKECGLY

How did Nc1ccc2c(c1)C(=O)N(CCCCN1C(=O)c3ccc(N)cc3C1=O)C2=O do in these assays?
HCMV NEC inh: -27; GIV Gai3 FP: 109

Results for Nc1ccc2c(c1)C(=O)N(CCO)C2=O ?
HCMV NEC inh: -38; GIV Gai3 FP: 90; GIV Gai FP conf: 63; GIV-Gai AS conf: 44198

How did COc1ccc(S(=O)(=O)N2Cc3ccccc3CC2C(=O)NC(C)(C)C)cc1 (centres undefined) do in these assays?
HCMV NEC inh: 3

Results for NCCCC[C@H](N[C@@H](CCc1ccccc1)C(=O)O)C(=O)N1CCC[C@H]1C(=O)O ?
HCMV NEC inh: -33; GIV Gai3 FP: 108

How did CCOC(=O)C(Cc1c[nH]c2ccccc12)NC(=O)CCCCCN1C(=O)c2ccccc2C1=O (centres undefined) do in these assays?
HCMV NEC inh: -16; GIV Gai3 FP: 108

Results for CC(=C\c1ccccc1)/C=C1/SC(=O)NC1=O ?
GIV Gai3 FP: 101

What do the screens show for `CCN(CC)c1ccc2ccc(=O)oc2c1`?
HCMV NEC inh: -93; GIV Gai3 FP: 137

What do the screens show for `CCN(CC)c1ccc2cc(S(=O)(=O)c3ccc(F)c(Cl)c3)c(=O)oc2c1`?
HCMV NEC inh: -1; GIV Gai3 FP: 56*; GIV Gai FP conf: 71; GIV-Gai AS conf: 47488

Results for Nc1nnn2c(=O)c3cccc4cccc(c43)c12 ?
HCMV NEC inh: -108; GIV Gai3 FP: 88; GIV Gai FP conf: 79; GIV-Gai AS conf: 19934*

How did O=c1c2cccc3cccc(c32)c2nc3ccc4ccccc4c3n12 do in these assays?
GIV Gai3 FP: 112

What do the screens show for `COc1ccccc1CNC(=O)c1oc2ccc(S(=O)(=O)N3CCCCC3)cc2c1C`?
GIV Gai3 FP: 98

How did CC(C)(C)c1ccc(OCCOc2ccccc2C=C2C(=O)NC(=S)NC2=O)cc1 do in these assays?
HCMV NEC inh: -20; GIV Gai3 FP: 95

Results for O=C1NC(=S)NC(=O)C1=Cc1cccc(O)c1Cl ?
HCMV NEC inh: -11; GIV Gai3 FP: 77*; GIV Gai FP conf: 69; GIV-Gai AS conf: 4117*

Results for CN(C)S(=O)(=O)c1ccc(C(=O)N2CCN(C(=O)c3ccccc3)CC2)cc1 ?
HCMV NEC inh: -27

Structures above that contain four or more nitrogen atoms, in the order listed:
How did Nc1ccc2c(c1)C(=O)N(CCCCN1C(=O)c3ccc(N)cc3C1=O)C2=O do in these assays?
HCMV NEC inh: -27; GIV Gai3 FP: 109

Results for Nc1nnn2c(=O)c3cccc4cccc(c43)c12 ?
HCMV NEC inh: -108; GIV Gai3 FP: 88; GIV Gai FP conf: 79; GIV-Gai AS conf: 19934*
